# Assay results taken from ChEMBL document CHEMBL1156016, “Discovery of potent and selective histone deacetylase inhibitors via focused combinatorial libraries of cyclic alpha3beta-tetrapeptides” (J Med Chem, 2009).
# Experiments:
# [1] = target: T1, Protein deacetylase HDAC6 (Homo sapiens, UniProt Q9UBN7)
# T1 sequence (Q9UBN7 whole entry): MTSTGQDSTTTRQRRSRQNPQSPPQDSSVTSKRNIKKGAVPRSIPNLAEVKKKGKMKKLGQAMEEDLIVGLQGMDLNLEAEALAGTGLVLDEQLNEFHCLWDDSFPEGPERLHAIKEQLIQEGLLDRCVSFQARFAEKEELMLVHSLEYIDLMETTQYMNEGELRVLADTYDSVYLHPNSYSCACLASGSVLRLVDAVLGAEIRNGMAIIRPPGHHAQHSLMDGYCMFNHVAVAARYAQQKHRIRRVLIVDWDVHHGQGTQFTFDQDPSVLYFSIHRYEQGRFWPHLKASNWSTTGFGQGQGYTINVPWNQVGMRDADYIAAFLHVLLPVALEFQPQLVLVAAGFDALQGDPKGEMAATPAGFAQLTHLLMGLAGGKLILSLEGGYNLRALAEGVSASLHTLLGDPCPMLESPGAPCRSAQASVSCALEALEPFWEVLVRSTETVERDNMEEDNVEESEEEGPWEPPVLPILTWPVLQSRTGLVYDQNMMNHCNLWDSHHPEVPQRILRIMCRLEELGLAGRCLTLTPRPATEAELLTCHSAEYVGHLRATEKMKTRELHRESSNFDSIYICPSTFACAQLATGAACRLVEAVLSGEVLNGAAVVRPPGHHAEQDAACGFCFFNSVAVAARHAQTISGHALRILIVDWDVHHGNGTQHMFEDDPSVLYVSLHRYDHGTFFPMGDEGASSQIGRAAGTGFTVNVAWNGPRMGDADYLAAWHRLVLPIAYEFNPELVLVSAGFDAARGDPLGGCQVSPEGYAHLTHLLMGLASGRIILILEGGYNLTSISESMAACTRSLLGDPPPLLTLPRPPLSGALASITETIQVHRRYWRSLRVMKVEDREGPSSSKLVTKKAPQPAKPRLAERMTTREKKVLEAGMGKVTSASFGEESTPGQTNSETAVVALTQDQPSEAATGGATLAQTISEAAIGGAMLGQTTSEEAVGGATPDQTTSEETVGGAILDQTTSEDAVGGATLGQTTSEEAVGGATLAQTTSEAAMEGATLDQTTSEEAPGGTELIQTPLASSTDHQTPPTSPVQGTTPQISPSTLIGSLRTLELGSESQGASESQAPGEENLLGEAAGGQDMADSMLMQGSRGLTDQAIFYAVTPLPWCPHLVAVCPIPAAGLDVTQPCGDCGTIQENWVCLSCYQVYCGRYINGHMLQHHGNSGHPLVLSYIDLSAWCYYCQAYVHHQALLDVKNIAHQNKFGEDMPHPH
# Histone deacetylase [2] = assay type: cell-based, Homo sapiens; details: hela
# Histone deacetylase 3 = Histone deacetylase 3 (Homo sapiens, UniProt O15379)
# Histone deacetylase 1 = Histone deacetylase 1 (Homo sapiens, UniProt Q13547)
# Histone deacetylase [3] = assay type: cell-based, Homo sapiens; details: hela; remark: listed apart in the source
Structure (SMILES),IC50 [1],IC50 (Histone deacetylase [2]),IC50 (Histone deacetylase 3),IC50 (Histone deacetylase 1),IC50 (Histone deacetylase [3])
CC(C)C[C@H]1CC(=O)NC(C)(C)C(=O)N[C@@H](CCCCCC(=O)O)C(=O)N[C@@H](Cc2cccc3ccccc23)C(=O)N1,7000 nM,500 nM,970 nM,136 nM,–
CC(C)C[C@H]1CC(=O)N[C@@H](C)C(=O)N[C@@H](CCCCCC(=O)O)C(=O)N[C@@H](Cc2c[nH]c3ccccc23)C(=O)N1,–,324 nM,–,–,630 nM
